The test system of the data set is CCO. Briefly: purified protein. The following applies: oxidation, 1 mM NAD+, 50 mM Tris-HCl pH 9.0, 30 °C.

As for 6h-Aadh2p (Blastobotrys adeninivorans), the Michaelis constant (Km) stood at 14.2 mM, the catalytic constant (kcat) worked out at 1420 s⁻¹ and the kcat/Km stood at 99900 M⁻¹ s⁻¹.

As a reminder, the Km is the substrate concentration at which the rate is half of its maximum. For orientation: kcat means the maximal rate divided by the concentration of active sites. In general, kcat/Km refers to the second-order rate constant that governs catalysis at low substrate concentration.

The values above are taken from paper PMC5062937, “Aadh2p: an Arxula adeninivorans alcohol dehydrogenase involved in the first step of the 1-butanol degradation pathway” (Microbial Cell Factories, 2016).
